Inhibition data for 108 compounds are collected here from PubChem BioAssay AID624352 (Sanford-Burnham Center for Chemical Genomics, 2012).

Each structure is given as a SMILES string. This is a selection; strong and weak results do not stand in their true shares. Calls of active or inactive are those of the source.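 How the source made its calls: active means inhibition of the luminescence signal of 40% or more relative to plate controls, in a single-dose primary screen at 18.75 µM; inactive means the rest.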

This experiment can be described thus: blockers of HIF-2a driven luciferase – luminescence, 786-0 RCC cells, primary screen (AID 624352). As to conditions: 786-0 RCC cells HIF-2a reporter, overnight, at 18.8 µM, hits give high values.
For the compound `CCN1CCC(Nc2ccc(Cl)cc2)CC1`, the inhibition is inactive: 12.5%.

In the case of `O=c1[nH]c2ccccc2n1C1CCN(C(c2ccccc2OC(F)(F)F)c2nnnn2C2CCCC2)CC1` (stereo not drawn), the inhibition was inactive: -14.3%. Next, `N#CC1(Nc2ccccc2)CCN(CCc2ccccc2)CC1`: inactive: 17.2%.

On to `O=C(NCC1(N2CCCCC2)CCCCC1)c1cccc([N+](=O)[O-])c1`, for which the inhibition was inactive: 13.6%. The same measure for `CSc1ccc(C(=O)NCC2(N3CCOCC3)CCCCC2)cc1`: inactive: 1.51%; for `CC(C)(C)n1nnnc1C(c1ccccc1OC(F)(F)F)N1CCC(n2c(=O)[nH]c3ccccc32)CC1` (stereo not drawn): inactive: -7.86%.

`O=C(NCC1(N2CCCCC2)CCCCC1)c1ccc(OC(F)F)cc1`: the inhibition is inactive: 5.59%. In the case of `COc1cc(C(=O)NCC2(N3CCCCC3)CCCCC2)ccc1OC(F)F`, the inhibition was inactive: 0.6%. For `O=C(NCC1(N2CCOCC2)CCCCC1)c1cc(=O)[nH]c2ccccc12`, the inhibition was inactive: 18.2%. The same measure for `CN1CCN(CCOC(=O)C(O)(c2ccccc2)c2ccccc2)CC1`: inactive: 11.9%; for `CC(C)c1ccc(C(=O)NCC2(N3CCOCC3)CCCCC2)cc1`: inactive: -38.6%.

For `COc1ccc(NC2CCN(C(=O)OC(C)(C)C)CC2)cc1`, the inhibition was inactive: -20.2%. Next, `CCCCn1nnnc1C(c1cccc2ccccc12)N1CCC(n2c(=O)[nH]c3ccccc32)CC1` (stereo not drawn): inactive: 4.29%; `O=C(NCC1(N2CCCCC2)CCCCC1)c1cccc(C(F)(F)F)c1`: inactive: -7.65%.

On to `COc1cc(OC)c(C(=O)NCC2(N(C)C)CCCCC2)cc1OC`, for which the inhibition is inactive: 3.88%.

In the case of `O=C(NCC1(N2CCOCC2)CCCCC1)c1cc(F)c(F)cc1Cl`, the inhibition is inactive: -2.18%. The same measure for `CCC(c1nnnn1C(C)(C)C)N1CCC(n2c(=O)[nH]c3ccccc32)CC1` (stereo not drawn): inactive: 0.908%; for `CCCCn1nnnc1C(c1ccnc2ccccc12)N1CCC(n2c(=O)[nH]c3ccccc32)CC1` (stereo not drawn): inactive: 14.2%; for `CCCCn1nnnc1C(c1ccccc1OC(F)(F)F)N1CCC(n2c(=O)[nH]c3ccccc32)CC1` (stereo not drawn): inactive: -9.05%. `CC(C)c1ccc(NC2CCN(C(=O)OC(C)(C)C)CC2)cc1`: the inhibition is inactive: -253%. As to `COc1ccc(CN(CCCl)CCCl)cc1Cl`, the inhibition is inactive: 18.7%.

For the compound `CN(C)c1cccc(C(=O)NCC2(N3CCCCC3)CCCCC2)c1`, the inhibition is inactive: 16.2%. With `COc1ccc(C(c2nnnn2C2CCCC2)N2CCC(n3c(=O)[nH]c4ccccc43)CC2)cc1` (stereo not drawn), the inhibition was inactive: -9.18%. As for `Cc1ccc(C(=O)NCC2(N(C)C)CCCCC2)o1`, the inhibition was inactive: 1.76%. For the compound `CCCOc1ccc(C(=O)NCC2(N(C)C)CCCCC2)cc1OC`, the inhibition was inactive: 18.3%. Regarding `CN1CCC(Nc2cccc(F)c2)CC1`, the inhibition was inactive: 21.2%. Take `O=C(NCC1(N2CCCCC2)CCCCC1)c1cncc(Br)c1`: the inhibition is inactive: -0.384%. Take `CSc1ccccc1C(=O)NCC1(N2CCCCC2)CCCCC1`: the inhibition was inactive: 9.73%. Regarding `Cc1cccc(NC2(C#N)CCN(Cc3ccccc3)CC2)c1`, the inhibition is inactive: 8.51%. As for `COc1ccc(C(=O)NCC2(N3CCCCC3)CCCCC2)cc1`, the inhibition is inactive: 7.42%.

Regarding `CC(C)(C)OC(=O)N1CCC(N(C(=O)c2ccccc2)c2ccc(F)cc2)CC1`, the inhibition is inactive: 7.63%. `COc1ccc(C(=O)NCC2(N3CCCCC3)CCCCC2)c(OC)c1OC`: the inhibition was inactive: 4.53%.

With `CCC(c1nnnn1C1CCCC1)N1CCC(n2c(=O)[nH]c3ccccc32)CC1` (stereo not drawn), the inhibition is inactive: -19.4%. As to `O=C(NCC1(N2CCCCC2)CCCCC1)c1ccc(=O)[nH]c1`, the inhibition was inactive: -0.126%. With `O=C(NCC1(N2CCCCC2)CCCCC1)c1cccs1`, the inhibition is inactive: 7.16%. The same measure for `CCCCn1nnnc1C(CC)N1CCC(n2c(=O)[nH]c3ccccc32)CC1` (stereo not drawn): inactive: 1.69%; for `CCCCn1nnnc1C(c1cccs1)N1CCC(n2c(=O)[nH]c3ccccc32)CC1` (stereo not drawn): inactive: 4.1%; for `O=C(NCC1(N2CCCCC2)CCCCC1)c1ccc(Cl)s1`: inactive: 4.92%. Next, `N#CC1(Nc2ccccc2)CCN(Cc2ccccc2)CC1`: inactive: 15.7%; `O=C(OC1CN2CCC1CC2)C1c2ccccc2Oc2ccccc21` (stereo not drawn): inactive: -10.5%. Next, `O=c1[nH]c2ccccc2n1C1CCN(C(c2cc3ccccc3o2)c2nnnn2C2CCCCC2)CC1` (stereo not drawn): inactive: -76.9%. On to `COc1ccc(Cl)cc1C(=O)NCC1(N2CCOCC2)CCCCC1`, for which the inhibition was inactive: -14.8%. For the compound `CCOC(=O)N1CCC(Nc2ccc(OC)cc2)CC1`, the inhibition was inactive: 14.6%. Next, `CCCCn1nnnc1C(c1ccc(OC)cc1)N1CCC(n2c(=O)[nH]c3ccccc32)CC1` (stereo not drawn): inactive: 15.3%; `O=C(NCC1(N2CCCCC2)CCCCC1)c1ccc(Cl)nc1`: inactive: 6.92%.

On to `O=c1[nH]c2ccccc2n1C1CCN(C(c2ccccc2OC(F)(F)F)c2nnnn2C2CCCCC2)CC1` (stereo not drawn), for which the inhibition is inactive: -23.1%. Next, `Cc1cc(C)cc(N(C(=O)c2ccccc2)C2CCN(C(=O)OC(C)(C)C)CC2)c1`: inactive: 11.6%.

For the compound `O=C(NCC1(N2CCOCC2)CCCCC1)c1cc2ccccc2o1`, the inhibition is inactive: 13.7%. As for `CCCCn1nnnc1C(c1cc2ccccc2o1)N1CCC(n2c(=O)[nH]c3ccccc32)CC1` (stereo not drawn), the inhibition is inactive: -51.2%.

`O=P1(N(CCCl)CCCl)SCCCS1`: the inhibition is inactive: 16.6%. Next, `CCCCOc1ccc(C(=O)NCC2(N3CCOCC3)CCCCC2)cc1`: inactive: -10.8%; `O=C(NCC1(N2CCCCC2)CCCCC1)c1ccc(F)cc1`: inactive: 6.12%; `COc1ccc(NC2CCN(CCc3ccccc3)CC2)c(OC)c1`: inactive: 1.46%.

As for `CCOC(=O)N1CCC(Nc2ccc(F)cc2)CC1`, the inhibition is inactive: 14.5%. Consider `CC(C)(C)n1nnnc1C(c1ccccc1)N1CCC(n2c(=O)[nH]c3ccccc32)CC1` (stereo not drawn), for which the inhibition is inactive: 10.2%.

With `O=C1CCN(Cc2ccccc2)CC1`, the inhibition was inactive: 2.58%. `CCOc1ccc(C)cc1CN(CCCl)CCCl`: the inhibition was inactive: -0.734%. As to `CCOC(=O)N1CCC(Nc2cccc(C)c2)CC1`, the inhibition was inactive: 14.3%.

Consider `COc1cc(C(=O)NCC2(N(C)C)CCCCC2)ccc1OC(F)F`, for which the inhibition was inactive: 16.4%.

Regarding `O=c1[nH]c2ccccc2n1C1CCN(C(c2cccc3ccccc23)c2nnnn2C2CCCC2)CC1` (stereo not drawn), the inhibition was inactive: -2.42%. With `O=c1[nH]c2ccccc2n1C1CCN(C(c2ccccc2)c2nnnn2C2CCCCC2)CC1` (stereo not drawn), the inhibition is inactive: 3.99%. `Cc1ccc(C(=O)NCC2(N3CCCCC3)CCCCC2)o1`: the inhibition was inactive: 5.83%.

Take `Fc1ccccc1NC1CCN(Cc2ccccc2)CC1`: the inhibition was inactive: 15.3%. For the compound `Cc1ccc(NC2(C#N)CCN(Cc3ccccc3)CC2)cc1`, the inhibition was inactive: 6.99%. The same measure for `COc1cccc(C(c2nnnn2C2CCCCC2)N2CCC(n3c(=O)[nH]c4ccccc43)CC2)c1OC` (stereo not drawn): inactive: -15.4%. `CC(=O)N(c1ccccc1)C1CCNCC1`: the inhibition is inactive: 4.2%.

In the case of `CCC(c1nnnn1C1CCCCC1)N1CCC(n2c(=O)[nH]c3ccccc32)CC1` (stereo not drawn), the inhibition was inactive: -1.51%.

As to `COc1cc(OC)cc(C(=O)NCC2(N3CCCCC3)CCCCC2)c1`, the inhibition was inactive: 18.8%.

For `O=c1[nH]c2ccccc2n1C1CCN(C(c2ccnc3ccccc23)c2nnnn2C2CCCCC2)CC1` (stereo not drawn), the inhibition is inactive: 17.6%.

Consider `O=C(NCC1(N2CCCCC2)CCCCC1)c1ccco1`, for which the inhibition is inactive: 5.93%. For `CN(C)c1ccc(C(=O)NCC2(N3CCCCC3)CCCCC2)cc1`, the inhibition was inactive: 14.4%. The same measure for `Cn1c(=O)[nH]cc(N(CCCl)CCCl)c1=O`: inactive: 5.28%; for `Cc1ccccc1NC1(C#N)CCN(Cc2ccccc2)CC1`: inactive: 1.48%. Turning to `CCN1CCC(Nc2cccc(F)c2)CC1`, the inhibition is inactive: 12.6%. Regarding `COc1ccc(C(c2nnnn2C2CCCCC2)N2CCC(n3c(=O)[nH]c4ccccc43)CC2)cc1` (stereo not drawn), the inhibition was inactive: -5.17%. Next, `CC(C)(C)n1nnnc1C(c1ccnc2ccccc12)N1CCC(n2c(=O)[nH]c3ccccc32)CC1` (stereo not drawn): inactive: 26%. Next, `CC(C)(C)OC(=O)N1CCC(Nc2ccccc2)CC1`: inactive: 0.308%; `O=C(O)C1(Nc2ccccc2)CCN(Cc2ccccc2)CC1`: inactive: 10.7%.

Consider `NN(c1ccccc1)C1CCN(CCc2ccccc2)CC1`, for which the inhibition is inactive: 3.68%. The same measure for `O=c1[nH]c2ccccc2n1C1CCN(C(c2cc3ccccc3o2)c2nnnn2C2CCCC2)CC1` (stereo not drawn): inactive: -106%; for `CCCOc1ccc(C(=O)NCC2(N(C)C)CCCCC2)cc1`: inactive: 15.1%; for `CCOc1ncccc1C(=O)NCC1(N2CCOCC2)CCCCC1`: inactive: 21.5%. Next, `CN1CCC(Nc2ccc(F)c(Cl)c2)CC1`: inactive: 11.3%.

Turning to `CN1CCC(Nc2ccc(Cl)cc2)CC1`, the inhibition is inactive: 3.5%. The same measure for `COc1cc(OC)cc(C(=O)NCC2(N3CCOCC3)CCCCC2)c1`: inactive: 16.1%. On to `COc1cccc(C(c2nnnn2C2CCCC2)N2CCC(n3c(=O)[nH]c4ccccc43)CC2)c1OC` (stereo not drawn), for which the inhibition was inactive: 2.85%.

Consider `COc1cccc(C(=O)N(c2cc(C)cc(C)c2)C2CCN(C(=O)OC(C)(C)C)CC2)c1`, for which the inhibition is inactive: 18.6%. The same measure for `CCC(CO)(C(=O)OC1CN2CCC1CC2)c1ccccc1` (stereo not drawn): inactive: 19%.

As for `O=c1[nH]c2ccccc2n1C1CCN(C(c2cccs2)c2nnnn2C2CCCCC2)CC1` (stereo not drawn), the inhibition is inactive: -2.69%. Next, `COc1ccc(C(=O)NCC2(N3CCOCC3)CCCCC2)cc1OC`: inactive: 12.7%. Take `O=c1[nH]c2ccccc2n1C1CCN(C(c2ccnc3ccccc23)c2nnnn2C2CCCC2)CC1` (stereo not drawn): the inhibition was inactive: 26.9%. Turning to `CCCCn1nnnc1C(c1ccccc1)N1CCC(n2c(=O)[nH]c3ccccc32)CC1` (stereo not drawn), the inhibition was inactive: 6.84%.

`COc1cc(C(=O)NCC2(N3CCOCC3)CCCCC2)cc(OC)c1C`: the inhibition is inactive: 15.4%. The same measure for `O=C(NCC1(N2CCOCC2)CCCCC1)c1cc(Br)ccc1Cl`: inactive: 3.27%; for `O=C(OC1CN2CCC1CC2)C1c2ccccc2C=Cc2ccccc21` (stereo not drawn): inactive: -5.5%.

In the case of `O=c1[nH]c2ccccc2n1C1CCN(C(c2cccs2)c2nnnn2C2CCCC2)CC1` (stereo not drawn), the inhibition was inactive: 8.25%. `CCCCn1nnnc1C(c1cccc(OC)c1OC)N1CCC(n2c(=O)[nH]c3ccccc32)CC1` (stereo not drawn): the inhibition is inactive: 8.7%. Next, `CCOC(=O)N1CCC(Nc2ccc(C)cc2)CC1`: inactive: -2.69%; `COc1cccc(C(c2nnnn2C(C)(C)C)N2CCC(n3c(=O)[nH]c4ccccc43)CC2)c1OC` (stereo not drawn): inactive: 16.7%. The same measure for `N/C(=N\O)c1c(N)no[n+]1[O-]`: inactive: 17.9%. Regarding `N#Cc1ccc(C(=O)NCC2(N3CCCCC3)CCCCC2)cc1`, the inhibition was inactive: 4.88%. The same measure for `CC(C)(C)OC(=O)N1CCC(N(C(=O)c2ccccc2)c2ccc(Cl)cc2)CC1`: inactive: 14.3%; for `CC(C)(C)n1nnnc1C(c1cccc2ccccc12)N1CCC(n2c(=O)[nH]c3ccccc32)CC1` (stereo not drawn): inactive: -8.57%; for `CN(C)C1(CNC(=O)c2cccc(C#N)c2)CCCCC1`: inactive: 19%. Turning to `c1ccc(CN2CCC(Nc3ccccc3)CC2)cc1`, the inhibition was inactive: 13.4%. On to `Cc1cc(N(CCCl)CCCl)ccc1C=O`, for which the inhibition is inactive: 6.48%.

Take `O=c1[nH]c2ccccc2n1C1CCN(C(c2ccccc2)c2nnnn2C2CCCC2)CC1` (stereo not drawn): the inhibition is inactive: 16%. The same measure for `CCCN1CCC(Nc2cc(OC)cc(OC)c2)CC1`: inactive: 15.9%.

Broadly, the inhibition is the drop in the measured response relative to a control, in per cent.
